## AlphaSeq binding of Ab-95 light chain variants to a spike HR2 peptide

From the AlphaSeq antibody data of Engelhart et al. 2022 (doi:10.1038/s41597-022-01779-4), copy in the FLAb collection.

The target is the same throughout: PDVDLGDISGINAS, from the HR2 region of SARS-CoV-2 spike.

Parent scFv Ab-95: VH joined to VL by a (GGGGS)3 linker. Changes lie in the light chain CDRs alone.
VH: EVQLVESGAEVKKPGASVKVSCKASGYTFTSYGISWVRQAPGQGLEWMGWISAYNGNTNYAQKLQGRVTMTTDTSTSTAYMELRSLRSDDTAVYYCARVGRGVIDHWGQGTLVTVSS
VL: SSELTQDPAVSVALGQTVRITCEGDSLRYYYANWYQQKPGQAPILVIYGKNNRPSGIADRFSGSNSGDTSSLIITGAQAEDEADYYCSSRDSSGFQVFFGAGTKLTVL

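Phage display of a naive human antibody library on the peptide gave the parent. The library (AAYL52) carries one to three amino acid substitutions per variant, with no insertions or deletions. The scFvs were displayed on barcoded MATa yeast, the peptide on MATalpha yeast. Mating (16 h, 30 °C) was followed by selection of diploids and sequencing of their barcodes. A regression on co-assayed BCL2-family reference pairs converts the normalised counts of each replicate to an apparent Kd. Each pool was mated in three replicate cultures.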

Sequences are complete VL domains. This list gathers variants with a substitution at K50 (VL, numbered from residue 1). Scale: log10 of Kd in nM, estimated from mating counts; low values are strong binders. Replicates are averaged; those with no signal do not enter the mean. An entry "nd" has no value in the source: the pair was not observed among the diploids in that replicate. This suggests poor binding but is not conclusive. The list is sorted by this average, lowest first, undetected variants last. Parent in this assay: reference entry 2.31, copy in this library 2.25.

For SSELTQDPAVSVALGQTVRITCEGDSLYYYYANWYQQKPGQAPILVIYGSNNRPWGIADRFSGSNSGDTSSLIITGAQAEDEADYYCSSRDSSGFQVFFGAGTKLTVL, the assay gave 1.85, 1.33, 0.83 (mean 1.34; controls 0 of 9).
For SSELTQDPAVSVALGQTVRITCECDSLRYYQANWYQQKPGQAPILVIYGENNRPSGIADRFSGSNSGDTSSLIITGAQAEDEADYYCSSRDSSGFQVFFGAGTKLTVL, the assay gave 2.10, 2.03, 1.57 (mean 1.90; controls 2 of 9).
For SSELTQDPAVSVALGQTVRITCEGDSLRYYTANWYQQKPGQAPILVIYGNNNRPSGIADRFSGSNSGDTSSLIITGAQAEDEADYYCPSRDSSGFQVFFGAGTKLTVL, the assay gave 2.26, 2.01, 1.71 (mean 1.99; controls 2 of 9).
For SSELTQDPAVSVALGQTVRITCEGGSLNYYYANWYQQKPGQAPILVIYGRNNRPSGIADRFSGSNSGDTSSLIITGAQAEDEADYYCSSRDSSGFQVFFGAGTKLTVL, the assay gave 2.50, 1.94, 1.57 (mean 2.00; controls 3 of 9).
For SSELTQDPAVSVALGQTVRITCEGDSLRYYYANWYQQKPGQAPILVIYGMNNRPSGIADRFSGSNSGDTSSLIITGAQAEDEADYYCSSRDSSGAQEFFGAGTKLTVL, the assay gave 2.04, 1.96, 2.08 (mean 2.02; controls 4 of 9).
For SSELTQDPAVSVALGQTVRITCEGDSLRYYYANWYQQKPGQAPILVIYGTNNRPSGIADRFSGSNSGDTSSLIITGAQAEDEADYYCSSRDSSGFQVFFGAGTKLTVL, the assay gave 2.06, 2.07, 2.12 (mean 2.09; controls 1 of 9).
For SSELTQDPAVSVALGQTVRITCEGDSLRYYYANWYQQKPGQAPILVIYGTNHRPSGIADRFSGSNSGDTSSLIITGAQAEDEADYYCSSRDASGFQVFFGAGTKLTVL, the assay gave 2.89, 2.90, 2.55 (mean 2.78; controls 5 of 9).
For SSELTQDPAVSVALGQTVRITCEGDSLRYYYANWYQQKPGQAPILVIYGHNNRPSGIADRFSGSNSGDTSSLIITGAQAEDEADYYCSSRDGSGFQVAFGAGTKLTVL, the assay gave 3.24, 2.83, 2.60 (mean 2.89; controls 1 of 9).
For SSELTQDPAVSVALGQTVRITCEGDSLRYWYANWYQQKPGQAPILVIYGHNNRPSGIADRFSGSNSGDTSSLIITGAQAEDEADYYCSSRDSRGFQVFFGAGTKLTVL, the assay gave 3.15, 3.09, 2.44 (mean 2.89; controls 4 of 9).
For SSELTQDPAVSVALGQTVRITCEGDSLPYYYANWYQQKPGQAPILVIYGQNNRPSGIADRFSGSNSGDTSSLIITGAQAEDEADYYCNSRDSSGFQVFFGAGTKLTVL, the assay gave 3.70, 3.03, 1.96 (mean 2.90; controls 1 of 9).
For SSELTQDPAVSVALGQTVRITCEGDSLRYYYANWYQQKPGQAPILVIYGENNRPSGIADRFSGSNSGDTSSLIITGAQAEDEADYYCSSCDSSGFHVFFGAGTKLTVL, the assay gave 2.90, 3.42, 2.42 (mean 2.91; controls 4 of 9).
For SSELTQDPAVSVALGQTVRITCEGDSLRYYLASWYQQKPGQAPILVIYGENNRPSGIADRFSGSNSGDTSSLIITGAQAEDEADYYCSSRDSSGFQVFFGAGTKLTVL, the assay gave 3.04, 3.18, nd (mean 3.11; controls 4 of 9).
For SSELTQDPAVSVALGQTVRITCEGDSLRYYYANWYQQKPGQAPILVIYADNNRPSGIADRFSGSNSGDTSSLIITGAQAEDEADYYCSSRDFSGFQVFFGAGTKLTVL, the assay gave 2.54, 4.22, 2.94 (mean 3.23; controls 1 of 9).
For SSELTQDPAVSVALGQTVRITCEGMSLRYYYANWYQQKPGQAPILVIYGVNNRPSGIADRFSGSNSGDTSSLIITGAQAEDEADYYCTSRDSSGFQVFFGAGTKLTVL, the assay gave 2.94, 3.90, 3.61 (mean 3.48; controls 6 of 9).
For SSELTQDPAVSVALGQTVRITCNGDSLRYYYANWYQQKPGQAPILVIYGYNNRWSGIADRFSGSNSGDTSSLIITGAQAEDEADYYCSSRDSSGFQVFFGAGTKLTVL, the assay gave 3.50, nd, 3.91 (mean 3.70; controls 3 of 9).
For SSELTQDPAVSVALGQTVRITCEGDSLRYYYANWYQQKPGQAPILVIYGVNNRPSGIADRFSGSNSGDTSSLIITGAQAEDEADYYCSSRYSSIFQVFFGAGTKLTVL, the assay gave 3.74, nd, nd (controls 1 of 9).
For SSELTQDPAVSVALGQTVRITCEGDSLRYYYANWYQQKPGQAPILVIYGCNNRPPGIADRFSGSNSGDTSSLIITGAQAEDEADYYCSMRDSSGFQVFFGAGTKLTVL, the assay gave 3.82, nd, nd (controls 2 of 9).
For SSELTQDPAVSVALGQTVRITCEGDSLRYYYANWYQQKPGQAPILVIYGNNNLPSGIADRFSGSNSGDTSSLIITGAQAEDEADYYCSSRDSCGFQVFFGAGTKLTVL, the assay gave 4.41, 4.08, 3.00 (mean 3.83; controls 3 of 9).
For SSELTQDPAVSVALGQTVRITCMGKSLRYYYANWYQQKPGQAPILVIYGCNNRPSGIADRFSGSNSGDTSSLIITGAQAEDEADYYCSSRDSSGFQVFFGAGTKLTVL, the assay gave 4.12, 3.78, nd (mean 3.95; controls 2 of 9).
For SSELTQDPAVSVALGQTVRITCEGDSLRYYYLNWYQQKPGQAPILVIYGEMNRPSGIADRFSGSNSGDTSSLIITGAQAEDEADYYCSSRDSSGFQVFFGAGTKLTVL, the assay gave 4.06, nd, nd (controls 3 of 9).
For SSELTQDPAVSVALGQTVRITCEGDSLRYYYTNWYQQKPGQAPILVIYNTNNRPSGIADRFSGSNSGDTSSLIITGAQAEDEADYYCSSRDSSGFQVFFGAGTKLTVL, the assay gave 4.44, 4.87, nd (mean 4.66; controls 3 of 9).
For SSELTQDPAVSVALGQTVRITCEDDSLRYYYANWYQQKPGQAPILVIYGWNNRPSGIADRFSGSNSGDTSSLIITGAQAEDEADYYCSSRNSSGFQVFFGAGTKLTVL, the assay gave 4.25, 5.83, 5.01 (mean 5.03; controls 7 of 9).
For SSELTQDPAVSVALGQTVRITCEGDSLDYYYANWYQQKPGQAPILVIYGYNNRPSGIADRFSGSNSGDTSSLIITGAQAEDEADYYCSSRDSSGGQVFFGAGTKLTVL, the assay gave nd, nd, nd (controls 0 of 9).
For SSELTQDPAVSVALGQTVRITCEGDSLRYYYYHWYQQKPGQAPILVIYGENNRPSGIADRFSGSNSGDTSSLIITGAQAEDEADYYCSSRDSSGFQVFFGAGTKLTVL, the assay gave nd, nd, nd (controls 1 of 9).
For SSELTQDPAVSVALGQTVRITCEGDKLRYYYANWYQQKPGQAPILVIYGWNNRPSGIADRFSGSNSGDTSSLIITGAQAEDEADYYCSGRDSSGFQVFFGAGTKLTVL, the assay gave nd, nd, nd (controls 3 of 9).

The opening 3 entries, copied out:

| VL | replicates, log10 nM | log10 Kd (nM), mean | control signals |
|---|---|---|---|
| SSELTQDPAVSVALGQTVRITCEGDSLYYYYANWYQQKPGQAPILVIYGSNNRPWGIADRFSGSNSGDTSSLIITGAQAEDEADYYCSSRDSSGFQVFFGAGTKLTVL | 1.85, 1.33, 0.83 | 1.34 | 0 of 9 |
| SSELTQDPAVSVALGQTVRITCECDSLRYYQANWYQQKPGQAPILVIYGENNRPSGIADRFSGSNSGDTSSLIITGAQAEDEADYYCSSRDSSGFQVFFGAGTKLTVL | 2.10, 2.03, 1.57 | 1.90 | 2 of 9 |
| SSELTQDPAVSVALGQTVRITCEGDSLRYYTANWYQQKPGQAPILVIYGNNNRPSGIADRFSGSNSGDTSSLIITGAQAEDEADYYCPSRDSSGFQVFFGAGTKLTVL | 2.26, 2.01, 1.71 | 1.99 | 2 of 9 |

Empty control strains, which show no peptide, gave a signal in 28% of pairings with library AAYL52; the median was 3.91 and 95% of these signals were weaker than 2.90. No background was subtracted. Also given: how often the same scFv was detected with the empty control strains.